Experimental data: patent US10993957B2 (NuCana plc, priority 2011, dated 2021)

The chains behind the UniProt entries cited, without tags or fusion partners. Where a name states a change or a piece, a line headed by the entry shows the natural chain unless it says otherwise.
UniProt P07650: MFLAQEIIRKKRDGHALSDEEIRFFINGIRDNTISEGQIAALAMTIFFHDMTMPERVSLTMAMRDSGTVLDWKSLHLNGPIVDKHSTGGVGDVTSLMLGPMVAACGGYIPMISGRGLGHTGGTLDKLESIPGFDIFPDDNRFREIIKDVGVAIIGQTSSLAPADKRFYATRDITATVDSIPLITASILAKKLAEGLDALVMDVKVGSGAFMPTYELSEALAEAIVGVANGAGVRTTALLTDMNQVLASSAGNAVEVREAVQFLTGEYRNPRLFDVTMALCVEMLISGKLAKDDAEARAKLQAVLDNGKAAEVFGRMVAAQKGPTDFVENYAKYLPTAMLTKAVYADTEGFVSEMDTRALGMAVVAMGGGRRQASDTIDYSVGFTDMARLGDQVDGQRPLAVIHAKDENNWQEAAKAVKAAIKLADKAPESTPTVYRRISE

How the values were obtained:
E. coli TP = E. coli TP (Escherichia coli, UniProt P07650); test: Phosphorolysis by E. coli TP, HPLC; conditions: 100 μM compound, room temperature, 0-40 min
Method: Reaction mixtures containing 100 μM test compound and recombinant TP or UP (human TP: 8.6 ng/μL; E. coli TP: 3.0 ng/μL; human UP: 4 ng/mL) in a total volume of 500 μL reaction buffer (10 mM TrisHCl; 300 μM NaCl; 1 mM EDTA; 2 mM KH2PO4/K2HPO4) were incubated at room temperature. At different time points (i.e. 0, 20, 40 min) 100 μL aliquots of the reaction mixtures were withdrawn and heated at 95° C. for 3 min to inactivate the enzyme. The resulting reaction products were separated on a reverse-phase RP-8 column (Merck, Darmstadt, Germany) and quantified by HPLC analysis (Alliance 2690, Waters, Milford, Mass.). […] UV-based detection was performed at 267 nm. The separation of Urd from uracil was performed by a linear gradient from 100% separation buffer (see above) to 60% separation buffer+40% acetonitrile (3 min 100% separation buffer; 6 min linear gradient of 100% separation buffer to 60% separation buffer+40% acetonitrile; 6 min 60% separation buffer+40% acetonitrile, followed by equilibration at 100% separation buffer). UV-based detection was performed at 258 nm.

human TP = molecular target: T1, human TP (Homo sapiens, UniProt P19971); test: Phosphorolysis by human TP, HPLC; conditions: 100 μM compound, room temperature, 0-40 min
T1 sequence (P19971 11-482): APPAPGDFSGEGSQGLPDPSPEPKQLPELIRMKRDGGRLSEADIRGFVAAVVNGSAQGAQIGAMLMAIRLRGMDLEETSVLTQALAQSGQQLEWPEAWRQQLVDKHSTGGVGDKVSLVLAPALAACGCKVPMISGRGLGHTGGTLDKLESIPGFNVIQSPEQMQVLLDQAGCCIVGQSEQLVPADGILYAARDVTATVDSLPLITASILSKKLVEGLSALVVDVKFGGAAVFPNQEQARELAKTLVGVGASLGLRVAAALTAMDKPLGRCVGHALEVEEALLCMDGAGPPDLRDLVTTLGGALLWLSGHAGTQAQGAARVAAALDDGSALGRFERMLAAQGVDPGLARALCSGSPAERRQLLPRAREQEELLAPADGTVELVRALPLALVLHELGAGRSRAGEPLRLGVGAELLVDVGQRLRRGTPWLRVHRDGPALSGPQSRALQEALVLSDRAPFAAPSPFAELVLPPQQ
Method: Reaction mixtures containing 100 μM test compound and recombinant TP or UP (human TP: 8.6 ng/μL; E. coli TP: 3.0 ng/μL; human UP: 4 ng/mL) in a total volume of 500 μL reaction buffer (10 mM TrisHCl; 300 μM NaCl; 1 mM EDTA; 2 mM KH2PO4/K2HPO4) were incubated at room temperature. At different time points (i.e. 0, 20, 40 min) 100 μL aliquots of the reaction mixtures were withdrawn and heated at 95° C. for 3 min to inactivate the enzyme. […] The separation of Urd from uracil was performed by a linear gradient from 100% separation buffer (see above) to 60% separation buffer+40% acetonitrile (3 min 100% separation buffer; 6 min linear gradient of 100% separation buffer to 60% separation buffer+40% acetonitrile; 6 min 60% separation buffer+40% acetonitrile, followed by equilibration at 100% separation buffer).

With `O=c1ccn([C@@H]2O[C@H](CO)[C@@H](O)[C@H]2O)c(=O)[nH]1` [uridine, reference compound] the “Phosphorolysis by E. coli TP” value (E. coli TP) was “not by E. coli TP” and the “Phosphorolysis by human TP” value (human TP) was “not by E. coli TP, or human TP”.
